# Experimental data: article PMC8624523, “Novel GPR120 Agonists with Improved Pharmacokinetic Profiles for the Treatment of Type 2 Diabetes” (Molecules, 2021)
# pEC50: −log10 of the molar value.
# Tests used:
# hGPR120 = test system: hGPR120; parameters: method as in PMID 22519963, PMID 29100735, PMID 28642104, PMID 28947942, PMID 28374589; conditions: cited from earlier work
# DIO mice = test: Anti-hyperglycemic effects (oGTT) in diet-induced obese (DIO) mice; parameters: species or system C57BL/6 mice; conditions: mouse, in vivo, 20 mg/kg
# Excerpt: After 1 week of adaptation, male C57BL/6 mice weighing 18–22 g, were fed a high-fat diet (45% calories from fat, from Mediscience Ltd., Yangzhou, China) ad libitum for an additional 8 weeks to induce insulin resistance. […] Blood samples were collected and measured in accordance with the oral glucose tolerance test in normal ICR mice.
SMILES,pEC50 (hGPR120),insulin levels at 30 min after oral administration of glucose (DIO mice)
[2H]C([2H])(CC(=O)O)c1ccc(OCc2cc(F)ccc2-c2ccc(C)cc2)cc1 [Compound 2],7.20,
"Cc1ccc(-c2ccc(F)cc2COc2ccc(CCC(=O)O)cc2)cc1 [TUG-891, reference compound]",7.36,significantly increased insulin levels
